Literature values, collected in patent US10927398B2, “Compositions for CYP450 phenotyping using saliva samples” (Concordia University, Inc., priority 2015, dated 2021).
Only a part of the results on these compounds is given; other tests are left out.

Tests used:
[1] = test system: plasma protein; details: Table of Exemplary Drugs, CYP3A4; cited from earlier work
[2] = Table of Exemplary Drugs, CYP3A4; cited from earlier work

Row | SMILES | PLASMA PROTEIN BINDING [1] [%] | HALF-LIFE [2] [h]
1 | CCC(=O)N(c1ccccc1)C1(COC)CCN(CCn2nnn(CC)c2=O)CC1 | 92 | 1.5
2 | CCC(=O)N(c1ccccc1)C1(COC)CCN(CCc2cccs2)CC1 | 93 | 2.5
